Results on 1 compound are retold here after publication PMC4516653 (European journal of pharmaceutical sciences : official …, 2015).

By UniProt entry, the sequences of proteins in these tests, tags left out.
UniProt P33261, whole entry: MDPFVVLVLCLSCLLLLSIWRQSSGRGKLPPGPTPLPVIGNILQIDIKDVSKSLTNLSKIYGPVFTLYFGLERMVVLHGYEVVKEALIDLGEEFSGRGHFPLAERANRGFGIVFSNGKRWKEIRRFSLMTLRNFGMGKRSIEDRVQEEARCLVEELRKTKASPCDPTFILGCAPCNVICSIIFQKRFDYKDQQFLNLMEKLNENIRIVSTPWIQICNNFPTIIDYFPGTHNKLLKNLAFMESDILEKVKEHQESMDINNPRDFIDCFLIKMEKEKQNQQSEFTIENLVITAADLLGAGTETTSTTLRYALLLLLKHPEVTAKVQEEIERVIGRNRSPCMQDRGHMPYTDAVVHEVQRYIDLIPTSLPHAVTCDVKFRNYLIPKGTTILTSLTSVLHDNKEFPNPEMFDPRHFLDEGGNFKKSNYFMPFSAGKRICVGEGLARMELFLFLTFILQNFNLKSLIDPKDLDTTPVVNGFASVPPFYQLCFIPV

The test deals with CYP2C19 (Homo sapiens, UniProt P33261). The test is described as follows: CYP inhibition assay in human liver microsomes. It is filed as in vitro ADME.

Turning to `O=C(/C=C/C=C/c1ccc2c(c1)OCO2)N1CCCCC1` [Pip, piperine], the 50% inhibitory concentration (IC50) (commonly the midpoint of a concentration-inhibition curve) stood at 22 µM.
